Protein sequences, listed by entry. Tags and fused reporters are not part of them.
UniProt Q99683, whole entry: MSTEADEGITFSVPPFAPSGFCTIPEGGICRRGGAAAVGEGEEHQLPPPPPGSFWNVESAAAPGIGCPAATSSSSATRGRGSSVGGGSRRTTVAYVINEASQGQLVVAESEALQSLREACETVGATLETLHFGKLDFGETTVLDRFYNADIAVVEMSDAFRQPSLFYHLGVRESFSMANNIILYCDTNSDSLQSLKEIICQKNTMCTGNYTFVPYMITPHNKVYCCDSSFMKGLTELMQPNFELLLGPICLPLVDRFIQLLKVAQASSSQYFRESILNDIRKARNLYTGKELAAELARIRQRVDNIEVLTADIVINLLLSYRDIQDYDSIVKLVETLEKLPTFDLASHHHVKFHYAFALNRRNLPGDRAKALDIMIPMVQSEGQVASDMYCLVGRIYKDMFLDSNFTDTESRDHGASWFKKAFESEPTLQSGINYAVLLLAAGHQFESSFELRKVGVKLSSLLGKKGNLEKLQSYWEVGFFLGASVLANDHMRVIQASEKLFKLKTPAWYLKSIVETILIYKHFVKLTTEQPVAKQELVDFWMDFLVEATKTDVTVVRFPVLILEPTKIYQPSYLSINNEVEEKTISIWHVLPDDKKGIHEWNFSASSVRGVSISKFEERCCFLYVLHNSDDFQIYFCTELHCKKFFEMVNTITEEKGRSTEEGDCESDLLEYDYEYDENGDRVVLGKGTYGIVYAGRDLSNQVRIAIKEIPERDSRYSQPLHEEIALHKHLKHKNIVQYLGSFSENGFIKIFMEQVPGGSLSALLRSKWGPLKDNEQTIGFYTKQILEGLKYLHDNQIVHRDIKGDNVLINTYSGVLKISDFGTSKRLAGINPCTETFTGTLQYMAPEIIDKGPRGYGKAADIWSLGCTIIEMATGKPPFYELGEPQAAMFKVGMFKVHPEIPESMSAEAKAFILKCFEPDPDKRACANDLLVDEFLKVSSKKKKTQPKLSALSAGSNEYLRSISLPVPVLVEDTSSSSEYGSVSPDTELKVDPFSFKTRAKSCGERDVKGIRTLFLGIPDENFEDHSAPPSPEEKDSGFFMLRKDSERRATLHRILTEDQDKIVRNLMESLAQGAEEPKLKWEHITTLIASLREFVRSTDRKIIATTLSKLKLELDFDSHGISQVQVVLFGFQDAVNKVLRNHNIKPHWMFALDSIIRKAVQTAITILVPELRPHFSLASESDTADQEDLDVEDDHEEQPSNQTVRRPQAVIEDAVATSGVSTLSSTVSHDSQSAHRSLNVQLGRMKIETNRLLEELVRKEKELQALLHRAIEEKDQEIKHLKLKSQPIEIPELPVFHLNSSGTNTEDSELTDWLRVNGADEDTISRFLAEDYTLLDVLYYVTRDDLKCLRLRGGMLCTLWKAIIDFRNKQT

In US10919911B2, “Tricyclic ASK1 inhibitors” (Terns, Inc., priority 2018, dated 2021):

Target: ASK1 kinase (Homo sapiens (Human), UniProt Q99683)
Assay: RBC Kinase Assay (33P-ATP radiometric, myelin basic protein substrate)
Details: 20 ng ASK1 kinase, MBP substrate, 120 min at room temperature, 1% DMSO
Protocol: Example B1. RBC Kinase Assay Protocol
Base Reaction buffer: 20 mM Hepes (pH 7.5), 10 mM MgCl2, 1 mM EGTA, 0.02% Brij35, 0.02 mg/ml BSA, 0.1 mM Na3VO4, 2 mM DTT, and 1% DMSO were used for the assay.
Myelin base protein (MPB) was prepared in freshly prepared Base Reaction Buffer. 20 ng of ASK1 kinase was delivered into the substrate solution and gently mixed. Compounds in DMSO were delivered into the kinase reaction mixture (final DMSO concentration 1%). Commercially available 33P-ATP was delivered into the reaction mixture to initiate the reaction. The kinase reaction was incubated for 120 min. at room temperature. Reactions were spotted onto P81 ion exchange paper (Whatman #3698-915). Filters were washed extensively in 0.75% Phosphoric acid. Radioactivity on filters was read, and IC50 values were determined.

SMILES: C[C@@H]1Cn2nnnc2-c2cccc(NC(=O)c3cc(-n4cnc(C5CC5)c4)ccn3)c2O1
- IC50: 24.7 nM
